# Reference: patent US20230115907A1, “HETEROCYCLIC COMPOUND AND PHARMACEUTICAL COMPOSITION, PREPARATION METHOD, INTERMEDIATE AND USE THEREOF” (EVOPOINT BIOSCIENCES CO., LTD., priority 2019, published 2023)
# Protein sequences, listed by entry. Tags and fused reporters are not part of them.
# UniProt P50613, whole entry: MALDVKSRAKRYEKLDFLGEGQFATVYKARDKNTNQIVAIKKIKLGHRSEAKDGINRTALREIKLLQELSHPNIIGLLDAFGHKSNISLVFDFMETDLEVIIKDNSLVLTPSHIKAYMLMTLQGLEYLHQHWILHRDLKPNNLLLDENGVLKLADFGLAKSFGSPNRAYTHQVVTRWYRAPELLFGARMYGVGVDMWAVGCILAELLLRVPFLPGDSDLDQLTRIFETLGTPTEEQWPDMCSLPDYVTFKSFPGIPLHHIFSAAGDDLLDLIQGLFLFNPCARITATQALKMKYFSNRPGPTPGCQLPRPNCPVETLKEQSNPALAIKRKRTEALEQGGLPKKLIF
# UniProt P51948, whole entry partner: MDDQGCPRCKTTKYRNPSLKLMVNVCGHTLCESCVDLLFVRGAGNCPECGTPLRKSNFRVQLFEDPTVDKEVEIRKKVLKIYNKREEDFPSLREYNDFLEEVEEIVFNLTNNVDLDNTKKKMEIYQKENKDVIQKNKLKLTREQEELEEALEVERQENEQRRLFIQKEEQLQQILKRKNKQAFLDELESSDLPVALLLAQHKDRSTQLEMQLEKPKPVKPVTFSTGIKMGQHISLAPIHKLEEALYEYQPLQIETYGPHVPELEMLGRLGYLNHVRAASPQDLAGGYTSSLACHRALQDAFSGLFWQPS
# UniProt P51946, whole entry partner: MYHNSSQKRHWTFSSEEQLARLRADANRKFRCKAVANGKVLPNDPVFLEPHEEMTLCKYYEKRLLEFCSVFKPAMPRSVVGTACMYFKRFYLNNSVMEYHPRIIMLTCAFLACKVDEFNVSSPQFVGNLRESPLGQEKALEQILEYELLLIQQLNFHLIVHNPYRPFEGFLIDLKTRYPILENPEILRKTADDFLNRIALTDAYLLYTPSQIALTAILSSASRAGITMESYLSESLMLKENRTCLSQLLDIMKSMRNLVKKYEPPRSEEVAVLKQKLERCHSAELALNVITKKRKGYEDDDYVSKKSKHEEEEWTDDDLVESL
# Where two headings read alike, the source gives them in different places.
# Assays:
# [1] = system: HCC70 cells; test: Inhibition of cell proliferation, CellTiter-Glo, HCC70; conditions: read-out: HCC70 IC50
# [2] = system: OVCAR3 cells; test: Inhibition of cell proliferation, CellTiter-Glo, OVCAR3; conditions: read-out: OVCAR-3 IC50
# [3] = system: HCT116 cells; test: Inhibition of cell proliferation, CellTiter-Glo, HCT116; conditions: read-out: HCT116 IC50; Efficacy Example 3 (Table 3), incubation for 3 days
# [4] = system: HCC1806 cells; test: Inhibition of cell proliferation, CellTiter-Glo, HCC1806; conditions: read-out: HCC1806 IC50; Efficacy Example 3 (Table 3), incubation for 3 days
# [5] = In vivo pharmacokinetics after intragastric administration in mice; conditions: single intragastric administration, 20 mg/kg, plasma
# [6] = In vivo pharmacokinetics after intragastric administration in rats; conditions: single intragastric administration, 40 mg/kg, plasma
# [7] = system: human colon cancer cells HCT116 xenograft tumor; test: In vivo efficacy in subcutaneous xenograft tumor model of human colon cancer cells HCT116
# [8] = biological target: CDK7/Cyclin H/MAT1 (Homo sapiens, UniProt P50613); test: CDK7 inhibition, mobility shift assay; conditions: CDK7 3 nM, pre-incubation 60 min, ATP 2 mM, peptide substrate 2 μM
# [9] = Efficacy Example 2 (Table 2), 72 h incubation
# [10] = Efficacy Example 3 (Table 3), incubation for 3 days
# [11] = 25 mg/kg p.o. QD × 21 days, mean value ± standard error
smiles,measurement,setting,value
"Cc1cc(NC2CCN(C(=O)OC3CCN(C(=O)C=CCN(C)C)C3)CC2)n2ncc(C(C)C)c2n1 (single isomer, unassigned) [SZ-015200]",IC50,[1]; [9],34.1 nM
same,IC50,[1]; [10],68.6 nM
same,IC50,[2]; [9],32 nM
same,IC50,[2]; [10],102 nM
same,IC50,[3],24.1 nM
same,IC50,[4],65.4 nM
same,AUC(0-t),[5],2926.85 ng·h/mL
same,AUC(0-∞),[5],3121.49 ng·h/mL
same,Cmax,[5],1209.14 ng/mL
same,T1/2,[5],1.97 h
same,Tmax,[5],0.67 h
same,AUC(0-t),[6],1988.83 ng·h/mL
same,AUC(0-∞),[6],2554.45 ng·h/mL
same,Cmax,[6],322.98 ng/mL
same,T1/2,[6],4.11 h
same,Tmax,[6],3.33 h
same,Tumor inhibition rate (TGI),"[7]; 25 mg/kg p.o. QD × 21 days, day 21",27.9%
same,% proliferation percentage of tumor volume (Day 21 after grouping),[7]; [11],764 ± 58%
same,Tumor volume (day 21 after grouping),[7]; [11],766 ± 71 mm^3
same,Anti-tumor effect (in words),"[7]; SZ-015256: 25 mg/kg and 15 mg/kg treatment groups, SZ-015268 and SZ-015200: 25 mg/kg treatment group",slight anti-tumor tendency
same,IC50,[8],54.1 nM
"Cc1cc(NC2CCN(C(=O)OC3CCN(C(=O)C=CCN(C)C)C3)CC2)n2ncc(C(C)C)c2n1 (single isomer, unassigned) [SZ-015201]",IC50,[1]; [9],25.5 nM
same,IC50,[2]; [9],22.6 nM
same,IC50,[8],134 nM
